The chains behind the UniProt entries cited, without tags or fusion partners. Residues count along the entry.
UniProt Q00987, whole entry: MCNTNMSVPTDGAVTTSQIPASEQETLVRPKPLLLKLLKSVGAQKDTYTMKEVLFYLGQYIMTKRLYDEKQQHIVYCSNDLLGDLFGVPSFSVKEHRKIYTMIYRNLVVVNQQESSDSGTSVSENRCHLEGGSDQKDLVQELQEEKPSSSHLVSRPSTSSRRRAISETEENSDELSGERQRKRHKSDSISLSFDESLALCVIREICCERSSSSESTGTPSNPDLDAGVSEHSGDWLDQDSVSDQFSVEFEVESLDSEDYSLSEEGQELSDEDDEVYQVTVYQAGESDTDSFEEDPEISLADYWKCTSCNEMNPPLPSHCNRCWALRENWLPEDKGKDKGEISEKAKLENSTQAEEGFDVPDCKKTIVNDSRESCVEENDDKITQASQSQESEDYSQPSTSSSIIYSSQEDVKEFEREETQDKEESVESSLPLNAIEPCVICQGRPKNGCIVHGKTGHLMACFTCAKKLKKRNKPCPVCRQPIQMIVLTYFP
UniProt Q09472, 323-423 limits assumed: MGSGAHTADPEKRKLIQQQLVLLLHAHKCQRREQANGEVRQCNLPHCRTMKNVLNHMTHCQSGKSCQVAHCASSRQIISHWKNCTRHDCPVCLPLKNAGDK

According to US10787424B2, “Oxopiperazine helix mimetics for control of Hypoxia-Inducible gene expression” (NEW YORK UNIVERSITY, priority 2014, dated 2020):

Key:
[1] = molecular target: His6-tagged Mdm2 (Homo sapiens, UniProt Q00987); assay: Competitive fluorescence polarization assay with Flu-p53 as a probe; assay type: binding; settings: read-out: Mdm2 Kd; cross-specificity, Mdm2, Flu-p53 probe (Table 9)
From the text: FIGS. 11A-B are graphs of oxopiperazine analog binding to His6-tagged Mdm2 determined by a fluorescence-polarization assay (FIG. 11A) and to p300-CH1 determined by tryptophan fluorescence spectroscopy (FIG. 11B).

[2] = molecular target: human p300 CH1 domain (p300-CH1) (Homo sapiens, UniProt Q09472); assay: Tryptophan fluorescence binding assay for p300-CH1; settings: read-out: p300 Kd; cross-specificity, p300-CH1 (Table 9)
From the text: The DNA sequence of the human p300 CH1 domain (amino acid residues 323-423) was subcloned into a pUC57 plasmid by Genscript, Inc. After transformation of JM109 bacteria (Promega) with the plasmid, it was amplified and purified. Then the gene of interest was subcloned between BamHI and EcoRI restriction sites of pGEX-4T-2 expression vector (Amersham).
The pGEX-4T-2-p300 fusion vector was transformed into BL21(DE3) competent E.coli (Novagen) in M9 minimal media with ^15NH4Cl as the primary nitrogen source. Protein production was induced with 1 mM IPTG at OD600 of 1 for 16 hours at 15° C. Production of the desired p300-CH1-GST fusion product was verified by SDS-PAGE. […]
Relative affinities of OHMs for p300-CH1 were determined using a tryptophan fluorescence binding assay. Spectra were recorded on a QuantaMaster 40 spectrofluorometer (Photon Technology International) in a 10 mm quartz fluorometer cell at 25° C. with 4 nm excitation and 4 nm emission slit widths from 200 to 400 nm at intervals of 1 nm/s. Samples were excited at 295 nm and fluorescence emission was measured from 200-400 nm and recorded at 335 nm. […] Background absorbance and sample dilution effects were corrected by titrating DMSO into p300-CH1 in an analogous manner. […]

CC(C)C[C@@H](C(N)=O)N1CCN(C(=O)[C@H](Cc2c[nH]c3ccccc23)N2CCN[C@@H](Cc3cccc(Cl)c3)C2=O)[C@@H](Cc2ccccc2)C1=O
Kd [1]: 300 nM
Kd [2]: > 30000 nM
